Values quoted from earlier work, collected in US6149948A, “Method of decreasing plasma cholesterol and triglycerides with a chromium-containing complex” (University of Alabama, priority 1999, dated 2000).

System: peripheral lymphocytes
Settings: sub-cytotoxic concentrations; cited from earlier work

## chromium acetate hydroxide
  DNA strand breaks: fail to produce DNA strand breaks
